{
  "source": "paper PMC4676410",
  "about": "(Journal of medicinal chemistry, 2015)",
  "system": "CD4-dependent HIV-1ADA",
  "assay": "Infectivity assay against CD4-dependent virus in Cf2Th/CD4-CCR5 cells",
  "details": "read-out: IC50 against CD4-dependent virus; HIV-1ADA in Cf2Th/CD4-CCR5 cells",
  "data": [
    {"smiles": "Cc1nc(C(NC(=O)c2ccc(-c3ccc(Cl)cc3)[nH]2)C2CCCCN2)sc1CO", "note": "(mixture of isomers) [NBD-11021, 5-(4-Chlorophenyl)-N-((5-(hydroxymethyl)-4-methylthiazol-2-yl)-(piperidin-2-yl)methyl)-1H-pyrrole-2-carboxamide]", "values": [
      {"measurement": "IC50", "result": "2400 ± 200", "unit": "nM"}
    ]}
  ]
}
